{"source": "ChEMBL document CHEMBL4257227", "about": "“Deubiquitinase inhibitors and methods for use of the same” (2016)", "key": {"[1]": {"biological_target": "T1, Ubiquitin carboxyl-terminal hydrolase 5 (Homo sapiens) (UniProt P45974)", "T1 sequence (whole entry)": "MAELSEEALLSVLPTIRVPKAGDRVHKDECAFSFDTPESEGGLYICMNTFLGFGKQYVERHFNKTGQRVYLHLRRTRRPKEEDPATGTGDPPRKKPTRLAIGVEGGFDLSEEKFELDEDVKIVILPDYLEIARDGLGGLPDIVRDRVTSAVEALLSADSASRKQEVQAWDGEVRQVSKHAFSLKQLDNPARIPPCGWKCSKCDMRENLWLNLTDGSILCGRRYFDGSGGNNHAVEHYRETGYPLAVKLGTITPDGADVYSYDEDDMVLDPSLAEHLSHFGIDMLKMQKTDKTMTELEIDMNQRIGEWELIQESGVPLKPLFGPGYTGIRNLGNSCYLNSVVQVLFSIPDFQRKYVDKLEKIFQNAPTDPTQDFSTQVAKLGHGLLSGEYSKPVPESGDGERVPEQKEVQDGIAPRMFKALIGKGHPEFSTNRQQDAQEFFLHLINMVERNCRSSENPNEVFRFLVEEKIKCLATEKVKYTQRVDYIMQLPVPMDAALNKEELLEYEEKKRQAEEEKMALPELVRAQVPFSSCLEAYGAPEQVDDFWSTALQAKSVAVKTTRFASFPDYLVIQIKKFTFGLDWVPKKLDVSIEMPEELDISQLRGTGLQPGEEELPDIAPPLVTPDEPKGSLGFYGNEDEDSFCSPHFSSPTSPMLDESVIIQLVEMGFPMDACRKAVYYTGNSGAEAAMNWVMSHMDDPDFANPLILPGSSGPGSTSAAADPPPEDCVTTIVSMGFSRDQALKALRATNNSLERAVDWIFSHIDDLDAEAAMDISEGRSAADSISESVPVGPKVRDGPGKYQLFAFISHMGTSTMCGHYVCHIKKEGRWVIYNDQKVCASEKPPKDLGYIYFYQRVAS", "assay": "Inhibition of USP5 in Vemurafenib sensitive human A375 cells"}, "[2]": {"biological_target": "T1, Ubiquitin carboxyl-terminal hydrolase 5 (Homo sapiens)", "assay": "Inhibition of USP5 in Vemurafenib resistant human A375 cells"}}, "note": "Activity calls are given as the source filed them. The rule behind the calls is not given here."}
{"smiles": "CCCS(=O)(=O)Nc1ccc(F)c(C(=O)c2c[nH]c3ncc(-c4ccc(Cl)cc4)cc23)c1F", "note": "[VEMURAFENIB]", "values": [{"measurement": "inhibition", "setting": "[1]", "value": "Active"}, {"measurement": "inhibition", "setting": "[2]", "value": "inactive"}]}
